Data taken from publication PMC11220790 (Molecular Pharmaceutics, 2024).
Like-named read-outs stand apart in the source and are kept apart here.

Columns and labels:
[1] = Intrinsic dissolution, rotating disk apparatus; format: physicochemical
Method: Intrinsic dissolution tests were carried out in triplicate using a rotating disk dissolution apparatus. […] The attachments containing the disks were immersed into 500 mL of phosphate buffer, pH 6.8, medium preheated at 37.0 ± 0.5 °C with the metallic rod rotating at 100 rpm.

[2] = Photostability in aqueous media (DTIC degradation / 2-AZA formation kinetics); format: physicochemical; settings: 5 mM solution, phosphate buffer pH 6.8, UV irradiation 5 h
Method: The mobile phase consisted of a mixture of 0.1% (v/v) aqueous formic acid solution (A) and acetonitrile (B), in a gradient elution mode (0.0–2.5 min: 0% B; 2.5–4.0 min: 0–6% B; 4.0–5.0 min: 6–0% B; and 5.0–7.0 min: 0% B), delivered at a flow rate of 0.8 mL min^–1. […] The method validation followed the ICH Q2 (R2) guideline.[31] The parameters selectivity, linearity, precision, accuracy, and limits of quantitation and detection were evaluated.
A triplicate of freshly prepared solutions at a concentration of 5 mM has been placed into clear glass vials and arranged at 30 cm from a black UV lamp (300 mm, 15 W) to be photoirradiated for 5 h.

[3] = Thermal analysis (DSC and TG); format: physicochemical
Method: Thermogravimetric (TG) experiments were performed on a Shimadzu DTG-60 thermobalance, placing approximately 2.0 ± 0.2 mg of each sample in alumina pans and then heating at 10 °C min^–1 under a nitrogen flow (50 mL min^–1) from 25 to 600 °C. Differential scanning calorimetry (DSC) curves were obtained using a Shimadzu DSC-60 instrument. The samples (1.0 ± 0.2 mg) were placed in aluminum pans and heated at a constant rate of 10 °C min^–1 under a nitrogen flow (50 mL min^–1). According to TG data, the DSC measurements have been conducted until the degradation temperature of each compound. Shimadzu TA-60 software was employed in the data analysis.

[4] = Solid-state photodegradation test (black UV lamp chamber); settings: after 15 days in photostability chamber
[5] = Solid-state stability under accelerated degradation conditions (40 °C, 75% RH)

- IDR compared with DTIC (in words) ([1]; phosphate buffer pH 6.8): equivalent to those of DTIC
- IDR (intrinsic dissolution rate) pH 6.8 ([1]; phosphate buffer pH 6.8, 37.0 ± 0.5 °C, 100 rpm): 0.43 ± 0.03 mg cm^–2 min^–1
- kg, photogeneration rate constant for 2-AZA [2]: 0.378 ± 0.05 mM h^–1
- Tonset of DSC exothermic degradation peak [3]: 165.2 °C
- decomposition temperature (DSC exothermic degradation peak) [3]: 169.7 °C
- TG: thermally stable up to / mass loss begins at ([3]; 10 °C min^–1, nitrogen flow): ~156 °C
- Tonset of TG mass loss ([3]; 10 °C min^–1, nitrogen flow): 152.6 °C
- solubility pH 1.2 (HCl solution pH 1.2, 37.0 ± 0.5 °C, 24 h): 28.8 ± 0.2 mg mL^–1
- solubility pH 4.5 (acetate buffer pH 4.5, 37.0 ± 0.5 °C, 24 h): 10.2 ± 0.7 mg mL^–1
- pH measured after solubility study (dissolution medium pH 1.2): 1.2
- pH measured after solubility study (dissolution medium pH 4.5): 4.4
- pH measured after solubility study (dissolution medium pH 6.8): 6.8
- solubility pH 6.8 (phosphate buffer pH 6.8, 37.0 ± 0.5 °C, 24 h): 6.9 ± 0.3 mg mL^–1
- stability, % 2-AZA found [4]: 0.8 ± 0.1%
- stability, % DTIC found [4]: 98.7 ± 0.3%
- stability, % DTIC found ([5]; freshly prepared (initial) solid sample): 99.7 ± 0.2%
- stability, % DTIC found ([5]; solid, after 90 days at 40 °C and 75% RH): 99.3 ± 0.3%
Substance: Dacarbazine-Succinic Acid Cocrystal [DTIC-H2SUC]
